Test results: ChEMBL document CHEMBL2176970 (J Med Chem, 2012)

Chains of the proteins cited; added tags and fusions are not shown. Lines headed by an entry give the natural chain unless they say otherwise; changes in a name come on top.
UniProt Q9Y243: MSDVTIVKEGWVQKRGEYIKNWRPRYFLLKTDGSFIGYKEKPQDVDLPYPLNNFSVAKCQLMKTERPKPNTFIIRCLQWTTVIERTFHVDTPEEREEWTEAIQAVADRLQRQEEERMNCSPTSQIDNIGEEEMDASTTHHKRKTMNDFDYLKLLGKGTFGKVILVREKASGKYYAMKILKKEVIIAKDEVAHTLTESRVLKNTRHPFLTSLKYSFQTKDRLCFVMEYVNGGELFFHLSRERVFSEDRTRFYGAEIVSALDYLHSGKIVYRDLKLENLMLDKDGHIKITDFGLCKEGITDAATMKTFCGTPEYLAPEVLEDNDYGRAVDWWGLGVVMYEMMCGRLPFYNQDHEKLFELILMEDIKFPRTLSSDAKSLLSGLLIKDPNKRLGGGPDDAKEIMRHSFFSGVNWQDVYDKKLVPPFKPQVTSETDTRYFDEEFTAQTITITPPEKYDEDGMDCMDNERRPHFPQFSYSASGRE

Biological target: RAC-gamma serine/threonine-protein kinase (Homo sapiens, UniProt Q9Y243)
Assay: Inhibition of Akt3 (1 to 479) expressed in Sf9 cells using biotin-GRPRTSSFAEG as substrate after 20 mins by Alpha-screen assay

Nc1ncccc1-c1nc2cc(-c3cccnc3)cnc2n1-c1ccc(CNC(=O)c2cccc(F)c2)cc1 showed an IC50 of 400 nM.
